Reference: patent publication US9163003B2, “4-piperidinyl compounds for use as tankyrase inhibitors” (NOVARTIS AG, priority 2011, dated 2015)

By UniProt entry, the sequences of proteins in these tests, tags left out. Residues count along the entry.
UniProt Q9H2K2, 959-1164: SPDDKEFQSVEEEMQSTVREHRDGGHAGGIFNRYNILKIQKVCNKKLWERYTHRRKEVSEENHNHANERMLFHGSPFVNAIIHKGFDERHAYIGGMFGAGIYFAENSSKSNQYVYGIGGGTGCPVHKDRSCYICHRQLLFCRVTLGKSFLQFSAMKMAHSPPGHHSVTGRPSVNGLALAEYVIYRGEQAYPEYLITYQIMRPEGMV

Target: tankyrase 2 protein PARP domain, TNKS2P (GST-tagged) (Homo sapiens (Human), UniProt Q9H2K2)
Assay: TNKS2 autoparsylation (AP) biochemical assay, LC/MS detection of nicotinamide
Settings: 20 nM enzyme, 250 μM NAD+, 60 min room temperature

| Compound | IC50 |
| --- | --- |
| COc1ccc2c(c1)CC1(CCN(C3CCN(Cc4nc5c(c(=O)[nH]4)COCC5)C3=O)CC1)C2=O (centres unmarked) [Example 15, 2-((3-(5-methoxy-1-oxo-1,3-dihydrospiro[indene-2,4′-piperidine]-1′-yl)-2-oxopyrrolidin-1-yl)methyl)-7,8-dihydro-3H-pyrano[4,3-d]pyrimidin-4(5H)-one] | 0.018 ± 0.002 µM |
| COc1ccc(C(=O)C2CCN(C3CCN(CC(=O)Nc4nnc5n4CCS5)C3=O)CC2)cc1 (centres unmarked) [Example 32, N-(5,6-dihydrothiazolo[2,3-c][1,2,4]triazol-3-yl)-2-(3-(4-(4-methoxybenzoyl)piperidin-1-yl)-2-oxopyrrolidin-1-yl)acetamide] | 0.021 ± 0.001 µM |
